Chains of the proteins cited; added tags and fusions are not shown.
UniProt P28223, whole entry: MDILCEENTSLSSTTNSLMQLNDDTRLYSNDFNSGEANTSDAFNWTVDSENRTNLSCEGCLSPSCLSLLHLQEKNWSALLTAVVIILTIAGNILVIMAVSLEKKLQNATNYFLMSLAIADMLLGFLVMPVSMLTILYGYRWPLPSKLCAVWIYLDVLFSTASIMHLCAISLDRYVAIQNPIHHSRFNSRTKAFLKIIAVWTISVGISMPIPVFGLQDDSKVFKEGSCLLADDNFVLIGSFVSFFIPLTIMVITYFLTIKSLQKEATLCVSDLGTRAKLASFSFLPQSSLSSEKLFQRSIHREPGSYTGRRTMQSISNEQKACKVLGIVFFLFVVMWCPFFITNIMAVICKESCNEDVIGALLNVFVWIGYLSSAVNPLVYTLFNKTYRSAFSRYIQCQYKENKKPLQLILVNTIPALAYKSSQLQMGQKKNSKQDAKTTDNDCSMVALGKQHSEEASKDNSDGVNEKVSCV

According to ChEMBL document CHEMBL5154833, “New N-aryl-N'-aryl-/(thio)ureido-/sulfamoylamino-derivatives of alkyl/alkylcarbamoyl piperazines: Effect of structural modifications on selectivity over 5-HT1A receptor” (Eur J Med Chem, 2022):

Target: 5-hydroxytryptamine receptor 2A (Homo sapiens, UniProt P28223)
Assay: Binding affinity to 5-HT2AR (unknown origin) assessed as inhibition constant

`Clc1cccc(N2CCNCC2)c1` [CHLOROPHENYLPIPERAZINE] was tested, and the Ki was 32 nM.
